Assay results: EP4813463A2, “TYK2 INHIBITORS AND COMPOSITIONS AND METHODS THEREOF” (Lynk Pharmaceuticals Co. Ltd., priority 2023, dated 2024)

Key:
Caco-2 cell lines = assay: Caco-2 cell permeability; type: in vitro ADME; conditions: Caco-2, 10.0 µM, no p-gp inhibitor
Experimental: Compounds permeability was evaluated using Caco-2 cell lines. HBSS buffer was used as transfer buffer. Appropriate dosing and receiver solutions were applied to the donor and receiver chambers to initiate the transport assay in apical to basolateral (A to B) or basolateral to apical (B to A) directions. Compounds were tested at 10.0 µM in the absence of p-gp inhibitor bidirectionally in duplicates. After incubation at 37°C for 90 mins, donor and receiver samples were analyzed by LC-MS/MS. The intestinal absorption potential was assessed using Papp value and efflux ratio.

[1] = Brain pharmacokinetic studies in rats; type: in vivo, Sprague-Dawley rats; conditions: po, 5 mg/kg, solution
Experimental: Pharmacokinetic profiles of test articles were evaluated in fasted Sprague-Dawley rats. Different kinds of formulations were designed to ensure test articles fully dissolved and wouldn't precipitate in 1:10 SGF or FaSSIF dilution. Typically, Rats were dosed with 3 mg/kg and 5 mg/kg by intravenous injection and oral gavage, respectively. The animal was restrained manually at the designated time points, approximately 150 µL of blood sample was collected via jugular vein for serial bleeding into K2EDTA tubes. The blood samples were maintained in wet ice first and centrifuged to obtain plasma (2000g, 4°C, 5 min) within 30 minutes post sampling. Anesthetizing the rat with the Isoflurane vaporizer to 2%~3% and place its back on the operation table. Spread the animal limbs and pin the limbs on the operation table. Make a cut along the sternum about 4cm long, low enough to expose the sternum's end. Expose the heart and use a 25-gauge needle connected with a 20 mL syringe filled with 20 mL of cold saline to pierce the left ventricle. Maintain the placement of the needle, and slowly push the syringe plunger to wash the brain with saline. The perfusion will be finished within about 2 min and then take the brain out of the body carefully without damaging the tissue. Dry the tissue on filtrate paper, which should be placed on ice, and then weigh the brain tissue and store at -70 °C and analyzed by LC/MS/MS for quantification. PK parameter values, including, but not necessarily limited to, the maximum plasma concentrations (Cmax), and the area under the plasma concentration vs. time curve (AUC) from time zero to 24-hour (AUC0-24h) were determined using WinNonlin program. Table 13. Systemic Pharmacokinetic Parameters in Sprague-Dawley Rats

BMS986165 [reference compound]
Efflux Ratio: Papp(B-A)/Papp(A-B) (Caco-2 cell lines): 56.50 | Papp (10^-6 cm·s^-1) A-B (Caco-2 cell lines; 90 mins, A to B): 0.98 10^-6 cm·s^-1 | Papp (10^-6 cm·s^-1) B-A (Caco-2 cell lines; 90 mins, B to A): 55.12 10^-6 cm·s^-1 | AUC ([1]; brain): 82.6 ng·h/g | T1/2 ([1]; brain): 7.85 h | Brain AUC/Systemic AUC [1]: 0.02 | AUC ([1]; systemic (plasma)): 4088 ng·h/mL | T1/2 ([1]; systemic (plasma)): 1.82 h
